Measured affinities in a library of Ab-91 heavy chain variants

Source: Engelhart et al. 2022 (doi:10.1038/s41597-022-01779-4), MIT Lincoln Laboratory and A-Alpha Bio; data file from the FLAb repository.

The target is the same throughout: PDVDLGDISGINAS, from the HR2 region of SARS-CoV-2 spike.

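Phage display of a naive human antibody library on the peptide gave the parent. AAYL51 was designed without a model: most single CDR substitutions and a random sample of double and triple ones. The assay is AlphaSeq: two haploid yeast populations carry antibody and antigen on their surface. After mating in shaken culture at 30 °C for 16 h, diploids were selected and their barcode pairs sequenced. Read counts were normalised to the haploid input and turned into Kd by a linear fit to BCL2-family pairs of known affinity, for each replicate. Mating was done three times.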

Parent: Ab-91, a human scFv built as VL, a 15-residue (Gly4Ser)3 linker, VH. Only the CDRs of the heavy chain vary.
VL: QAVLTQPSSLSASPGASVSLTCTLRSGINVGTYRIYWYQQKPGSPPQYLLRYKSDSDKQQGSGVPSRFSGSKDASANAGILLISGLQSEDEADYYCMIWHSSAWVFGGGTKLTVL
VH: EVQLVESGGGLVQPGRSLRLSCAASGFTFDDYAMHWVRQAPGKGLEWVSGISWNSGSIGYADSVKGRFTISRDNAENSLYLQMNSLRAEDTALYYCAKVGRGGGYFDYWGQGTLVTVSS

Sequences are complete VH domains.
Every variant below is changed at S52 of the VH (sequential numbering).
Numbers give log10(Kd / nM), so 0 is 1 nM and 3 is 1 µM. Smaller is tighter.
An entry "nd" has no value in the source: the pair was not observed among the diploids in that replicate. This suggests poor binding but is not conclusive.

For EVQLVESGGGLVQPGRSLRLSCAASGFSFDDYAMHWVRQAPGKGLEWVSGIDWNSGSIGYADSVVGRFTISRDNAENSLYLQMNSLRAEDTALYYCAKVGRGGGYFDYWGQGTLVTVSS, the assay gave nd, nd, nd. With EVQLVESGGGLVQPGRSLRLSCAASGFTFDDYAMHWVRQAPGKGLEWVSGITWNSGSIGYADSVKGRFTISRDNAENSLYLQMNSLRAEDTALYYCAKVGRGGGRFDPWGQGTLVTVSS the result was 5.40, 5.66, 4.58. With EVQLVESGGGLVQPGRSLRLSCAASGFTFDDYAMFWVRQAPGKGLEWVSGITWNSGSIGYADPVKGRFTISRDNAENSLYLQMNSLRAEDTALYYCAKVGRGGGYFDYWGQGTLVTVSS the result was nd, nd, 4.78. With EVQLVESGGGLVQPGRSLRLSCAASKFTFDDYAMHWVRQAPGKGLEWVSGIRWNSGSIQYADSVKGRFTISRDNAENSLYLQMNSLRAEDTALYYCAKVGRGGGYFDYWGQGTLVTVSS the result was 3.97, nd, nd. For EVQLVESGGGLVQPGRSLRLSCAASGFTFDDYAMHWVRQAPGKGLEWVSGIMWNSGSIGYADSVLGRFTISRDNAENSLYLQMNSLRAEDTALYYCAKVGRGGGDFDYWGQGTLVTVSS, the assay gave 3.60, 4.95, nd.

The variant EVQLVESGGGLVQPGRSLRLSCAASGFQFDDYAMHWVRQAPGKGLEWVSGINWNSGSIGLADSVKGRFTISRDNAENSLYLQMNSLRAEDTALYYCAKVGRGGGYFDYWGQGTLVTVSS gave 3.16, 3.73, nd. With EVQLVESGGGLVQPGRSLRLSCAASGFTFDDYAMHWVRQAPGKGLEWVSGICWNSGSMGYADSWKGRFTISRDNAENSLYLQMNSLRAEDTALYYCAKVGRGGGYFDYWGQGTLVTVSS the result was nd, nd, nd. For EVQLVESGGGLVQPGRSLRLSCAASGFTFDDYAMHWVRQAPGKGLEWVSGIPWNSGSIGYADSVKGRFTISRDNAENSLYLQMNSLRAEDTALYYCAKVGRGSGIFDYWGQGTLVTVSS, the assay gave nd, nd, nd. The variant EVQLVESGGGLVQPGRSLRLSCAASGFTFDDYAMHWVRQAPGKGLEWVSMAAWNSGSIGYADSVKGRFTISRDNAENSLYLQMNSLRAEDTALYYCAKVGRGGGYFDYWGQGTLVTVSS showed nd, nd, nd. The variant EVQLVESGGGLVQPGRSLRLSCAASGFTFDDYAMHWVRQAPGKGLEWVSGINWNSISIGYADEVKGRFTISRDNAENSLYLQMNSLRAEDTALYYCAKVGRGGGYFDYWGQGTLVTVSS gave nd, nd, nd.

The variant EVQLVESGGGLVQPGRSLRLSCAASGMTFDDYAMHWVRQAPGKGLEWVSGIKWNSGSIGYADSVKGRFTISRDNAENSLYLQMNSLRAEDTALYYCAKVGRGGGEFDYWGQGTLVTVSS showed nd, nd, nd. For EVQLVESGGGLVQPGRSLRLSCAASGFTFDDNARHWVRQAPGKGLEWVSGIPWNSGSIGYADSVKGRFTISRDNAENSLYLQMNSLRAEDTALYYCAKVGRGGGYFDYWGQGTLVTVSS, the assay gave 4.54, 3.99, 5.07. With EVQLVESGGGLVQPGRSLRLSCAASGFTFDDYAMHWVRQAPGKGLEWVSGIRWNSNSIGYADSVKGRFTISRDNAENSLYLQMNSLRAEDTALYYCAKVYRGGGYFDYWGQGTLVTVSS the result was 4.50, 5.68, nd. The variant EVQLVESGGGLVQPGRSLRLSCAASGFTFDDYAMHWVRQAPGKGLEWVSGICWNSGMIGYADSVKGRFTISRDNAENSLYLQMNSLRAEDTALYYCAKVGCGGGYFDYWGQGTLVTVSS showed 3.99, nd, nd. The variant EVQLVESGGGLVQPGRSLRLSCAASGFTFDDYAVHWVRQAPGKGLEWVSGINWNSGSIHYADSVKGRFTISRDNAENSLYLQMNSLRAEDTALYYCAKVGRGGGYFDYWGQGTLVTVSS gave nd, nd, nd.

The variant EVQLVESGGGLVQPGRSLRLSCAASGFTFDDYFMHWVRQAPGKGLEWVSGIVWNSGSIGYADSVKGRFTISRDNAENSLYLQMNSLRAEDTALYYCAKVGRGGGYCDYWGQGTLVTVSS showed nd, nd, nd. For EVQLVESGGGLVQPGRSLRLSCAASGFTFDDYAAHWVRQAPGKGLEWVSGIKWNSGSIGYADSVKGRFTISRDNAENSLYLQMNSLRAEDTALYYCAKVGRGGGYFGYWGQGTLVTVSS, the assay gave nd, nd, nd.

The first 2 entries again:

VH,"log10 Kd, replicates"
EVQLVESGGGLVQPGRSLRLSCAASGFSFDDYAMHWVRQAPGKGLEWVSGIDWNSGSIGYADSVVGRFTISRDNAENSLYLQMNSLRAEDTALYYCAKVGRGGGYFDYWGQGTLVTVSS,"nd, nd, nd"
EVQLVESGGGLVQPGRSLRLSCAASGFTFDDYAMHWVRQAPGKGLEWVSGITWNSGSIGYADSVKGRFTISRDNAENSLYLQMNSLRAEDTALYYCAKVGRGGGRFDPWGQGTLVTVSS,"5.40, 5.66, 4.58"

For reference, the parent read 1.86 as the reference entry and 0.88 as a member of this library.
Background: pairings of library AAYL51 with three empty control strains gave a value in 21% of cases (median 4.54, 5th percentile 3.26). Values in that range, when seen in few replicates, are hard to tell from nonspecific mating.